Test results taken from patent publication US20220110917A1 (priority 2018, published 2022).

Experiment: Gaboxadol plasma concentration profiles: single-dose crossover PK study, oral capsules 2.5-20 mg and 10 mg I.V.
Conditions: geometric mean N=10

Oc1noc2c1CCNC2 [gaboxadol, 4,5,6,7-tetrahydroisoxazolo [5,4-c] pyridine-3-ol]
Ccoi (in Cmax row): 212 ng/mL
